Experimental data published in PMC12951430, “Modular Vinyl Phosphonamidates for Cysteine-Directed Protein Targeting” (Journal of the American Chemical Society, 2026).

The chains behind the UniProt entries cited, without tags or fusion partners.
UniProt Q06187, whole entry: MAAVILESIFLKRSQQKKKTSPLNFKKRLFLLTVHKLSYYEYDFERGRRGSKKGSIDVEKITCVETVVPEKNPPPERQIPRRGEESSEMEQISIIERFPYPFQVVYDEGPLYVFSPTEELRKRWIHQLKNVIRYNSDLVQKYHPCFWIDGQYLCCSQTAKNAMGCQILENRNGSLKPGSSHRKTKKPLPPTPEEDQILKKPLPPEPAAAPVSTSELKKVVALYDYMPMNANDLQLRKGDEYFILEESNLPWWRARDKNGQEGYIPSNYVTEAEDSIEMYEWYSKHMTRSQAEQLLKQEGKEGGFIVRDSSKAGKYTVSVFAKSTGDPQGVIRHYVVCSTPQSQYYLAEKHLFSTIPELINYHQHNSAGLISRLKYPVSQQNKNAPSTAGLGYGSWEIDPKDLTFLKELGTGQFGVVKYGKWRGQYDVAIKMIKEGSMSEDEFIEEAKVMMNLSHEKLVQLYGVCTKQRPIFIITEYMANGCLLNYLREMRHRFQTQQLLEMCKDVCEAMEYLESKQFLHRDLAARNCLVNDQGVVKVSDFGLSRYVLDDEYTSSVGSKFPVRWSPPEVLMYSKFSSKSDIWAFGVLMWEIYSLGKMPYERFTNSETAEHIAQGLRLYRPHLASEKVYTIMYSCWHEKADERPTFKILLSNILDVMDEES

Experiments:
BTK in RAMOS cells = BTK in RAMOS cells (Homo sapiens, UniProt Q06187); assay: PROTAC-mediated BTK degradation, anti-BTK Western blot; settings: 24 h, 37 °C
RAMOS cells = assay: Proteome-wide selectivity of PROTAC 14 (label-free quantitative proteomics); settings: 0.625 μM, 24 h, 37 °C, p <0.01

C=CP(=O)(Nc1ccccc1Cn1nc(-c2ccc(Oc3ccccc3)cc2)c2c(N)ncnc21)OCCc1cn(CCOCCOCCOCCNc2cccc3c2C(=O)N(C2CCC(=O)NC2=O)C3=O)nn1 (stereo not shown)
DC50 (BTK in RAMOS cells): 0.44 µM
DCMAX (BTK in RAMOS cells): around 77%
DMAX (BTK in RAMOS cells; second-order polynomial fit): 2 µM
proteins depleted (proteome-wide selectivity) (RAMOS cells): only BTK and the known Ibrutinib off-target BLK were depleted by more than 50%
